Literature values in patent US9433616B2, “Methods and compositions for decreasing saliva production” (priority 2005, dated 2016).

System: muscarinic receptors in the muscles of the eye
Conditions: in vivo; cited from earlier work

## CCN(Cc1ccncc1)C(=O)C(CO)c1ccccc1 (centres unmarked) [tropicamide, N-ethyl-N-(4-pyridylmethyl) tropamide]
  recovery from mydriasis: 3 to 8 h
  time to mydriasis after instillation: 15 to 20 min
